IC50 data for one molecule are collected here from ChEMBL document CHEMBL5214927, “Recent advance on carbamate-based cholinesterase inhibitors as potential multifunctional agents against Alzheimer's disease” (Eur J Med Chem, 2022).

For the assay, the target named is Acetylcholinesterase (Torpedo californica, UniProt P04058). The assay is described as follows: Inhibition of Pacific electric ray AChE using acetylthiocholine iodide as substrate preincubated for 5 mins followed by substrate addition measured after 2 mins by Ellman's method.

With `Cc1c(OC(=O)N(C)C)c(=O)ccn1-c1ccccc1`, the concentration for half-maximal inhibition (IC50) stood at 48.8 µM.
